Laboratory results from patent US8273342B2, “Anti-virus therapy for respiratory diseases” (University of Southampton, priority 2004, dated 2012).

Tests used:
RV-16 [1] = assay: RV-16 replication in BECs from a COPD patient, HeLa cell titration assay; format: cell-based, rhinovirus; settings: RV-16 (2 moi), exogenous IFN-β (100IU/ml)
Description: Cells were infected with RV-16 (2 moi) in the absence or presence of exogeneous IFN-β (100IU/ml). Virion production was measured as TCID50/ml by HeLA cell titration assay.
(§1) RV titration was performed by exposing confluent monolayers of HeLa cells in 96-well plates to serial 10-fold dilutions of viral stock and cultured for 5 days at 37° C. in 5% CO2. Cytopathic effect was assessed and the tissue culture infective dose of 50% (TCID50/ml) was then determined and the multiplicity of infection (MOI) derived (Papi and Johnston, J Biol Chem, 1999; 274: 9707-9720). As a negative control for all experiments RV-16 was inactivated by exposure to UV irradiation at 1200 μJ/cm^2 UV light for 30 minutes. Inactivation was confirmed by repeating viral titrations in HeLa cells.
Chronic obstructive pulmonary disease is another example of an inflammatory airways disease in which the common cold virus causes exacerbations (Seemungal T A, Harper-Owen R, Bhowmik A, Jeffries D J, Wedzicha J A. Detection of rhinovirus in induced sputum at exacerbation of chronic obstructive pulmonary disease. Eur Respir J. (2000) 16, 677-83)_with those affected frequently requiring_hospitalization (MacNee W. Acute exacerbations of COPD. Swiss Med. Wkly. (2003) May 3; 133 (17-18):247-57). […]

[2] = system: asthmatic bronchial epithelial cells; assay: Apoptosis by Annexin-V/7-AAD flow cytometry in asthmatic BECs; format: cell-based, human; settings: IFN-β plus poly(I):poly(C), regimen not specified
IFN-β mRNA = IFN-β mRNA induction in RV-16 infected BECs from a COPD patient, RT-qPCR; format: cell-based, human; settings: RV-16 (2 moi), exogenous IFN-β, 8 hours
Description: IFN-β mRNA was measured by reverse transcription quantitative PCR and normalised to IFN-β levels in untreated (SFM) controls.
Analysis of gene expression for IL-8, TNFα, ICAM-1, IFNβ and RV was carried out using RNA extracted from BECs using TRIzol reagent (Life Technologies, Paisley, UK); contaminating DNA was removed by deoxyribonuclease digestion on RNeasy Mini Kits (Qiagen, Crawley, West Sussex, UK) in accordance with manufacturer's instructions. Total RNA (1 μg) was reverse transcribed using random hexamers or oligo (dT)15 primers and avian myeloblastosis virus transcriptase from the Reverse Transcription System (Promega, Southampton, UK), following the manufacturer's protocol. […]
Housekeeping gene primers and probe for 18S ribosomal RNA was obtained from Eurogentech (Eurogentech, Southampton, UK). […] Quantitation and real-time detection of the PCR were followed on the on icycler sequence detection system, and after completion of the PCR, the thresholds for fluorescence emission baseline were set just above background levels on the FAM and VIC layers (˜15 to 20 cycles). Standard curves were calculated from the delta CT and were constructed for target genes and the 18S rRNA endogenous control, and the amount of target and endogenous control were calculated. […]

RV-16 [3] = assay: RV-16 viral yield from asthmatic BECs, HeLa titration assay of supernatant; format: cell-based, rhinovirus; settings: for viral yield, median log TCID50: supernatant after 48 h, RV-16 alone 3.56
Description: Cells were also treated alone or following infection with the major group RV-16. After infection cells were also treated with the caspase 3 inhibitor ZVD-fmk at 120 μM (Calbiochem, La Jolla, Calif., USA) and human IFNβ at 100IU (Sigma Chemical St Louis Mo., USA).
as §1
The desired concentration of RV-16 was applied to cells that were gently shaken at 150 rpm at room temperature for 1 hour. The medium was then removed and the wells washed twice with 1 ml Hanks Balanced Salt Solution. […] As negative controls cells were treated with medium alone and UV inactivated RV-16.
Confirmation of infection of epithelial cells and quantification of viral production was assessed by HeLa titration assay (Papi and Johnston, J Biol Chem, 1999; 274: 9707-9720) and quantitative reverse transcription polymerase chain reaction (qPCR), as described below.

BEAS2B cells [4] = assay: Induction of pro-inflammatory cytokines in BEAS2B cells; format: cell-based, human
Text: FIG. 20. IFNλs induce pro-inflammatory cytokines by themselves in a dose responsive manner and markedly enhance induction of pro-inflammatory cytokines in response to rhinovirus 16 expression, again in a dose responsive manner. These properties are observed in BEAS2B cells and indicate that IFNλs augment responses likely to recruit other inflammatory cells to virus infected epithelium.

BEAS2B cells [5] = assay: Induction of type I and type III interferons in BEAS2B cells; format: cell-based, human
Text: FIG. 19. […] There is thus positive feedback between type 1 and type III interferon sub-types.

With “IFN-β: human IFNβ at 100IU (Sigma Chemical St Louis Mo., USA), exogenous type I interferon” the “RV-16 replication, virion production as TCID50” value (RV-16 [1]) was “one hundred fold reduction; also recorded: reduced”, the “induction of apoptosis in response to synthetic poly(I):poly(C)” value [2] was “marked induction of apoptosis” and the “induction of IFN-β mRNA” value (IFN-β mRNA) was “vigorous induction”. The “viral yield, median log TCID50” value (RV-16 [3]; asthmatic BECs pre-treated with IFNβ (100IU) for 12 h) was 1.12 (0.28, 1.34), the “viral yield, median log TCID50” value (RV-16 [3]; asthmatic BECs treated with IFNβ (100IU) immediately following infection) was 2.78 (2, 3.56) and the “RV-16 infectious virion production” value (RV-16 [3]; asthmatic BECs, IFN-β, regimen not specified) was “significant reduction”. For the same substance, the “induction of pro-inflammatory cytokines by the interferon itself” value (BEAS2B cells [4]; no virus) was “the same”, the “induction of pro-inflammatory cytokines in response to rhinovirus 16” value (BEAS2B cells [4]; with rhinovirus 16) was “the same” and the “induction of IFNλ-1, IFNλ2-3 and interferon β” value (BEAS2B cells [5]) was “induces itself as well as inducing both IFNλ-1 and IFNλ 2-3”.

Entries after “also recorded” stand apart in the source; their conditions may differ.
